ChEMBL document CHEMBL5512695, “Discovery of N-Substituted Acetamide Derivatives as Promising P2Y14R Antagonists Using Molecular Hybridization Based on Crystallographic Overlay” (J Med Chem, 2024)
Activity calls are given as the source filed them.

Columns and labels:
Type in all cases: functional, organism-based
Conditions in all cases: route ip, time 25.0 hrs
Mus musculus [1] = assay: Anti-inflammatory activity in MSU-induced acute gouty arthritis ICR mouse model assessed as decrease in redness of paw pretreated intraperitoneally 60 mins prior to MSU administration and measured for 24 hrs post-MSU administration
Mus musculus [2] = assay: Anti-inflammatory activity in MSU-induced acute gouty arthritis ICR mouse model assessed as decrease in inflammatory cell infiltration in foot pretreated intraperitoneally 60 mins prior to MSU administration and measured for 24 hrs post-MSU administration by H and E staining based analysis
Mus musculus [3] = assay: Anti-inflammatory activity in MSU-induced acute gouty arthritis ICR mouse model assessed as decrease in NLRP3 level in joints pretreated intraperitoneally 60 mins prior to MSU administration and measured for 24 hrs post-MSU administration by IHC staining based analysis

Measured: Activity

O=C(O)c1cc(-c2ccc(C3CCNCC3)cc2)c2ccc(-c3ccc(C(F)(F)F)cc3)cc2c1
active: all assays above
